Target: Human Factor D (Homo sapiens (Human), UniProt P00746)
Assay: Human Factor D assay
Type: biochemical
Conditions: Table 4; Factor D inhibition, substrate Z-L-Lys-SBzl
Method: Human Factor D (purified from human serum, Complement Technology, Inc.) at 80 nM final concentration is incubated with test compound at various concentrations for 5 min at room temperature in 50 mM Tris, 1M NaCl, pH 7.5. A synthetic substrate Z-L-Lys-SBzl and DTNB (Ellman's reagent) are added to final concentrations of 100 μM each. […] IC50 values are calculated by nonlinear regression of complement Factor D reaction rates as a function of test compound concentration.

Sequences of proteins named here, by UniProt entry; tags and fusion partners are left off. Residues count along the entry.
UniProt P00746, 26-253: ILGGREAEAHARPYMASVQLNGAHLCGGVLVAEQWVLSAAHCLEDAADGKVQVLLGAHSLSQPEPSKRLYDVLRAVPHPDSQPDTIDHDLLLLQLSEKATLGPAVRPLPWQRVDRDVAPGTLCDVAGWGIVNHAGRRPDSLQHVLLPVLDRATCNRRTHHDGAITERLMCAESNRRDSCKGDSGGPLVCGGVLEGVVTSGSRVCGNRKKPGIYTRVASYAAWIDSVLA

Work on CC(=O)c1nn(CP(=O)(O)N2C[C@H](F)C[C@H]2C(=O)Nc2cccc(Br)n2)c2ccc(-c3cnc(C)nc3)cc12 [Compound 627, ((3-acetyl-5-(2-methylpyrimidin-5-yl)-1H-indazol-1-yl)methyl)((2S,4R)-2-((6-bromopyridin-2-yl)carbamoyl)-4-fluoropyrrolidin-1-yl)phosphinic acid] yielded an IC50 greater than 10 µM.

Reference: patent US11407738B2 (Achillion Pharmaceuticals, Inc., priority 2015, dated 2022)
